For five compounds, Ratio EC50 results are on record in ChEMBL document CHEMBL4043287, “A Structure-Activity Relationship Study of Bitopic N6-Substituted Adenosine Derivatives as Biased Adenosine A1 Receptor Agonists” (J Med Chem, 2018).

Common to all, as to format: cell-based
The species named for experiment [1] is Homo sapiens. The experiment can be described thus: Selectivity index, ratio of EC50 for human A1AR expressed in FlpIn-CHO cells to EC50 for human A2BAR expressed in FlpIn-CHO cells.
Experiment [2] is filed under the species Homo sapiens. The experiment can be described thus: Selectivity index, ratio of EC50 for human A2AAR expressed in FlpIn-CHO cells to EC50 for human A2BAR expressed in FlpIn-CHO cells.
For experiment [3], the species on record is Homo sapiens. The experiment can be described thus: Selectivity index, ratio of EC50 for human A3AR expressed in FlpIn-CHO cells to EC50 for human A2BAR expressed in FlpIn-CHO cells.
The species entered for experiment [4] is Homo sapiens. The experiment can be described thus: Selectivity index, ratio of EC50 for human A3AR expressed in FlpIn-CHO cells to EC50 for human A1AR expressed in FlpIn-CHO cells.

With `Nc1nc(NCCCCCCNC(=O)c2ccc(-c3sc(N)c(C(=O)c4ccccc4)c3-c3cccc(C(F)(F)F)c3)cc2)c2ncn([C@@H]3O[C@H](CO)[C@@H](O)[C@H]3O)c2n1`, the Ratio EC50 in experiment [1], in experiment [2] and in experiment [3] was 200 each time.

Consider `O=C(NCCCCCCNc1ncnc2c1ncn2[C@@H]1O[C@H](CO)[C@@H](O)[C@H]1O)c1cccc(-c2cccs2)c1`, for which the Ratio EC50 in experiment [1], in experiment [2] and in experiment [3] was 200 throughout.

Regarding `Nc1sc(-c2ccccc2C(=O)NCCCCCCNc2ncnc3c2ncn3[C@@H]2O[C@H](CO)[C@@H](O)[C@H]2O)c(-c2cccc(C(F)(F)F)c2)c1C(=O)c1ccccc1`, in experiment [4], the Ratio EC50 was 100.

Take `Nc1sc(-c2cccc(C(=O)NCCCCCCNc3ncnc4c3ncn4[C@@H]3O[C@H](CO)[C@@H](O)[C@H]3O)c2)c(-c2cccc(C(F)(F)F)c2)c1C(=O)c1ccccc1`: the Ratio EC50 in experiment [4] came out at 10.

Turning to `Nc1sc(-c2ccc(C(=O)NCCCCCCNc3nc(Cl)nc4c3ncn4[C@@H]3O[C@H](CO)[C@@H](O)[C@H]3O)cc2)c(-c2cccc(C(F)(F)F)c2)c1C(=O)c1ccccc1`, the Ratio EC50 in experiment [1], in experiment [2] and in experiment [3] was 200 throughout.
